Our source for the MIC values is US8933096B2, “Antimicrobial agents” (Rugers, The State University of New Jersey, priority 2010, dated 2015).

In experiment [1] the test system is methicillin-Sensitive Staphylococcus aureus (MSSA). Nature of the experiment: Test C: planktonic antibacterial broth microdilution assay (MIC) vs MSSA. It counts as cell-based. As to conditions: read-out: MIC vs MSSA. On the procedure: (§1) Test C. Planktonic (Free-Living) Antibacterial Assay.
(§2) Planktonic antibacterial activity can be determined using a broth microdilution assay in which log-phase bacteria are grown at 37° C. in appropriate medium containing two-fold serial dilutions of a compound to yield a final concentration ranging from 256 to 0.1 μg/ml. For determination of minimal inhibitory concentration (MIC) values, bacterial growth is monitored after 24 to 48 hours by measuring optical density at 600 nm.
In general terms: Dilution methods test growth across graded concentrations, often in twofold steps.

In experiment [2] the test system is MRSA. Nature of the experiment: Test C: planktonic antibacterial broth microdilution assay (MIC) vs MRSA. Format: cell-based. As to conditions: Staphylococcus aureus, read-out: MIC vs MRSA. The protocol: as §1, §2

Usually MIC stands for the lowest concentration that inhibits growth of the organism. For `COc1cc2cc(-c3cccc(-c4ccc(C(C)(C)C)cc4)c3)nc(CN=C(N)N)c2cc1OC` [Example 10], the MIC in experiment [1] and in experiment [2] was not above 8 µg/mL each time.

For the molecule `COc1cc2cc(-c3cccc(-c4cccc(C(C)(C)C)c4)c3)nc(CN=C(N)N)c2cc1OC` [Example 11], the MIC in experiment [1] and in experiment [2] was not above 8 µg/mL in each case.

Regarding `COc1cc2cc(-c3cccc(-c4ccccc4)c3)nc(CN=C(N)N)c2cc1OC` [Example 12], the MIC in experiment [1] was not above 8 µg/mL.
